Laboratory results: publication PMC10298284, “Synthesis and hLDH Inhibitory Activity of Analogues to Natural Products with 2,8-Dioxabicyclo[3.3.1]nonane Scaffold” (International Journal of Molecular Sciences, 2023)

Protein sequences, listed by entry. Tags and fused reporters are not part of them.
UniProt P07195, whole entry: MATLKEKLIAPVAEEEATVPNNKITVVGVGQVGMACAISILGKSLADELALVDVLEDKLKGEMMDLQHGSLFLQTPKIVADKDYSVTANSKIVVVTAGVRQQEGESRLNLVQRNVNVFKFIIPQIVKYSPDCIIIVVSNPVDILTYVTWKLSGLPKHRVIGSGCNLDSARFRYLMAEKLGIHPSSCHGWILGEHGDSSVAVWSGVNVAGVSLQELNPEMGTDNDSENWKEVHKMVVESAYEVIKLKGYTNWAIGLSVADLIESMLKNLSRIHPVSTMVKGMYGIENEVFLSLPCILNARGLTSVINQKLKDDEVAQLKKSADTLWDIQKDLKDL

Tests used:
[1] = target: recombinant human LDHA (Homo sapiens, UniProt P00338); assay: hLDHA enzymatic activity assay (kinetic spectrofluorimetric, β-NADH fluorescence decrease); format: biochemical; conditions: pure enantiomers (Table 3); for IC50: read-out: hLDHA IC50
[2] = target: recombinant human LDHB (Homo sapiens, UniProt P07195); assay: hLDHB enzymatic activity assay (same fluorimetric protocol); format: biochemical; conditions: read-out: hLDHB IC50; pure enantiomers (Table 3)

| SMILES | Selectivity Rate (IC50 hLDHB/hLDHA) [1] | IC50 [1] | IC50 [2] |
| --- | --- | --- | --- |
| COc1ccc(C23CC(C4=C(CC(c5ccc(Cl)cc5)OC4=O)O2)c2cc([N+](=O)[O-])ccc2O3)cc1OC (single isomer, unassigned) [(+)-66a] | 4.8 | 9.1 µM | 43.2 µM |
| COc1ccc(C23CC(C4=C(CC(c5ccc(Cl)cc5)OC4=O)O2)c2cc([N+](=O)[O-])ccc2O3)cc1OC (single isomer, unassigned) [(−)-66a] | 2.7 | 14.9 µM | 40.8 µM |
